# Yeast mating assay 1: variants of the scFv Ab-14

Source: Engelhart et al. 2022 (doi:10.1038/s41597-022-01779-4), MIT Lincoln Laboratory and A-Alpha Bio; data file from the FLAb repository.

Target: peptide PDVDLGDISGINAS, taken from heptad repeat 2 (HR2) of SARS-CoV-2 spike.

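Phage display of a naive human antibody library on the peptide gave the parent. Variants in AAYL50 differ from the parent at up to three CDR positions; double and triple changes were sampled at random. The scFvs were displayed on barcoded MATa yeast, the peptide on MATalpha yeast. Pairs that bind mate more often; barcode pairs of the diploids are counted by sequencing. The ratio of observed to expected reads was calibrated, replicate by replicate, on BCL2-family standards whose Kd was known from biolayer interferometry. There are three technical replicates.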

Ab-14 is the parent antibody, in scFv form: VH, then a (GGGGS)3 linker, then VL. The heavy chain is unchanged in all variants.
VH: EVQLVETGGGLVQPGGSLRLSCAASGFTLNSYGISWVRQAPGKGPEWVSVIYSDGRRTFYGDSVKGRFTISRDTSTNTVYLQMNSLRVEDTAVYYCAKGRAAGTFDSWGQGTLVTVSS
VL: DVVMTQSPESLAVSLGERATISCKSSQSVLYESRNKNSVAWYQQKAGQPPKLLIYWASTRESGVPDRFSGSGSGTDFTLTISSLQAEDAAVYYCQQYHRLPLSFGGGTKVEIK

Changes read parent residue, position, new residue, counted from the first residue of the VL shown.
Values are log10 of the apparent Kd in nM; lower means stronger binding.
The mean shown is taken over the replicates in which the pair was detected.
"ND" means that the variant was in the library but no mating with the target was seen in that replicate; the authors take this as a sign of poor binding, and no number exists.

changes,log10 Kd (nM) by replicate,"log10 Kd (nM), mean",control signals
N35D+K36Y+S62F,0.96 / 1.13 / 1.18,1.09,4 of 9 (4.15)
E32R+W56L+L102Y,ND / ND / 5.98,5.98,5 of 9 (4.55)
V39L+E61Y+Q96W,ND / ND / ND,ND,0 of 9
L30T+K36L+Q95T,4.05 / 3.92 / 5.17,4.38,4 of 9 (4.33)
Q27T+V29A+E32K,2.28 / 2.36 / 2.46,2.37,1 of 9 (3.42)
K24I+N37A+A57Q,3.50 / ND / 4.81,4.15,5 of 9 (4.49)
K24A+S38E+E61C,3.20 / 2.86 / 3.39,3.15,2 of 9 (5.01)
Q27H+N37L+T59M,1.96 / 1.86 / 2.00,1.94,4 of 9 (4.75)
L30S+K36G+Q95V,1.34 / 1.51 / 1.11,1.32,7 of 9 (4.26)
S26Q+N35H+R60H,ND / ND / ND,ND,4 of 9 (4.00)
V29E+A40P,ND / ND / ND,ND,0 of 9
S26Q+N37F+S58M,1.13 / 1.53 / 1.70,1.45,0 of 9
R34P+S62I+L102I,0.64 / 0.87 / 0.62,0.71,2 of 9 (5.63)
Q27G+S38W+R60D,ND / ND / ND,ND,1 of 9 (4.75)
K36P+A40C+T59L,ND / ND / ND,ND,0 of 9
K24I+S25W+S26P,ND / ND / ND,ND,3 of 9 (3.26)
S26D+V39C+S62K,ND / ND / ND,ND,0 of 9
K36I+L100H+P101S,ND / 3.27 / 5.52,4.40,1 of 9 (3.92)
Q27G+N37T,2.49 / 2.35 / 2.60,2.48,5 of 9 (4.56)
R60M+H98R+L102F,ND / ND / ND,ND,0 of 9
S33R+V39E+A57G,0.82 / 1.37 / 0.85,1.02,1 of 9 (3.81)
S25P+S62P+R99S,2.64 / 1.60 / 2.27,2.17,0 of 9
S28T+S33V+S58I,ND / ND / ND,ND,0 of 9
R34P+A40V+Q96R,ND / ND / ND,ND,1 of 9 (4.17)
Q27C+S38K+H98M,3.97 / ND / ND,3.97,1 of 9 (4.75)
N37Q+V39W+R99A,3.11 / 2.29 / 2.42,2.61,0 of 9
S28R+V39F+L100W,5.54 / ND / ND,5.54,2 of 9 (3.28)
S28N+E32V+S38N,1.92 / 1.82 / 1.98,1.91,0 of 9
W56P+T59R+L100D,4.97 / ND / ND,4.97,2 of 9 (3.64)
S38A+Y97D+L102Y,ND / ND / ND,ND,0 of 9
A40Q+W56S+Q96H,ND / ND / 5.11,5.11,1 of 9 (4.38)
S28N+N37V+S103G,ND / ND / ND,ND,0 of 9

For reference, the parent read 0.65 as the reference entry and 1.68 as a member of this library.
As a blank, each scFv also met three strains without target: over library AAYL50, 18% of these pairings were detected, typically at 4.19 and seldom below 2.99. The control count says in how many pairings with the empty strains this scFv gave a signal, with their mean in brackets.